Only a part is listed here, and it is no random draw. Active and inactive are the calls of the source.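 The calls were made as follows: active = mean tau seeding fluorescence area under 1% of vehicle, meaning inhibition above a set limit; inactive = the rest.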
Molecular target: Microtubule-associated protein tau (Homo sapiens) (UniProt P10636)
Experiment: inhibitors of seeded tau aggregation, primary screen, biochemical, seed amplification, ThT fluorescence (AID 2061166)
Settings: Recombinant tau seeded by AD brain, ThT fluorescence AUC; at 100 µM; active compounds read high

By UniProt entry, the sequences of proteins in these tests, tags left out.
UniProt P10636, whole entry, looked up: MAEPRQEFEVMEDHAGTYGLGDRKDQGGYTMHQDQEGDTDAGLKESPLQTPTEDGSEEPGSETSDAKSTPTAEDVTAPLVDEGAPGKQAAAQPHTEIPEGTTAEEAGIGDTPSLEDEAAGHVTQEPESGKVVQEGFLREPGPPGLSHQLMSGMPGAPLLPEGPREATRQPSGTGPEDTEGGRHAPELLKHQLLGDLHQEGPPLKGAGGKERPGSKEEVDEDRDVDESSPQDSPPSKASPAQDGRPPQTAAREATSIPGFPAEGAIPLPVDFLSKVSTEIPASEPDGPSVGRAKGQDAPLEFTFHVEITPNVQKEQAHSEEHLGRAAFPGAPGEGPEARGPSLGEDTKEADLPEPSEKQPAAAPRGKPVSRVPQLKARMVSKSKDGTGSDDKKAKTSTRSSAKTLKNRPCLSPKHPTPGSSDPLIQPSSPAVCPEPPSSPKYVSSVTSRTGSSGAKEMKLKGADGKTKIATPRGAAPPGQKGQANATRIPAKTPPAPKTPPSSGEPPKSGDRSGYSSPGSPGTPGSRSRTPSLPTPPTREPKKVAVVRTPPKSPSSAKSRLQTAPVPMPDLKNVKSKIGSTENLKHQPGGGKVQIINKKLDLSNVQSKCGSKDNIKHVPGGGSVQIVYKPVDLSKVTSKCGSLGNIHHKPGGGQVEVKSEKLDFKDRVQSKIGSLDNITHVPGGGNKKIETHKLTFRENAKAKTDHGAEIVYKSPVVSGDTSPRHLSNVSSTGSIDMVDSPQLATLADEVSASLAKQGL

CC1=C2N=C(C=C3N=C(C(C)=C4[N-]C(C(CC(N)=O)C4(C)CCC(=O)NCC(C)OP(=O)([O-])OC4C(CO)OC(n5cnc6cc(C)c(C)cc65)C4O)C4(C)N=C1C(CCC(N)=O)C4(C)CC(N)=O)C(CCC(N)=O)C3(C)C)C(CCC(N)=O)C2(C)CC(N)=O.[C-]#N.[Co+3] (stereo unspecified)
inhibition: inactive: -42.3%
